The entries are a selection whose mix differs from that of the whole data set. Results filed as inconclusive are left out. Entries that show only a call come without a potency. Where a structure was tested more than once in an assay, its records may differ in their call. The source made the active and inactive calls. Calls come from the whole dose curve; as a rule, active = well fitted cell-killing curve with a large enough effect in the repeat runs; inconclusive = weak or mixed curves, or effect the other way; inactive = no such curve, though single readings can be large or run the other way.
Potency is the fitted concentration of half-maximal effect.

The test is described as follows: qHTS assay to identify small molecule antagonists of the sonic hedgehog signaling (Shh) pathway - cell viability counter screen (AID 1259367). Note: nearly all actives have a fitted effect of over 55% in size. As to conditions: NIH/3T3 Gli1-Luc viability, CellTiter-Fluor, 24 h; series mostly up to 92.4 µM. An excerpt:
National Center for Advancing Translational Sciences [NCATS]
NIH Chemical Genomics Center [NCGC]
U.S. Environmental Protection Agency [EPA]
National Institutes of Environmental Health Sciences [NIEHS]
National Toxicology Program [NTP]
U.S. Food and Drug Administration [FDA]
The sonic hedgehog (Shh) pathway is essential for normal embryonic development. Dysregulation of the Shh pathway can cause severe developmental defects in organs. Therefore chemicals that interfere with the pathway are potential developmental toxicants. A cell line designated 3T3Gli1-Luc (DMB/OARSA/CFSAN/FDA, Laurel, MD), a NIH/3T3 derived clone containing stably integrated Gli1-Luc reporter is used to detect chemical interference of the Shh pathway, by changes in the expression of the firefly Luc gene under the control of the Gli1 transcriptional response element. This cell line was used to screen Tox21 libraries for identifying and prioritizing the potential developmental toxicants that interfere Shh pathway. Conditioned medium-stimulated mode was used to screen for chemicals inhibiting Shh signaling. The cytotoxicity of the compounds was tested in parallel by measuring the cell viability using CellTiter-Fluor assay system (Promega, Madison, WI) in the same wells.
Tox21 Assay Protocol Summary:
3T3 Gli1-Luc cells were dispensed at 2,000 per well in 5uL of culture medium into white solid bottom 1536-well plates (Greiner Bio-One, Monroe, NC) using a Multidrop Combi (Thermo Scientific, Waltham, MA) dispenser. The assay plates were incubated at 37 C and 5% CO2 for 4hr, and then 23nL of compounds dissolved in DMSO and positive control were transferred using a Pintool station (Wako, San Diego, CA). The compound transfer was followed by the addition of 1ul conditioned medium or assay buffer using two separate tips of Flying Reagent Dispenser (FRD, Aurora Discovery, San Diego, CA). The assay plates were incubated at 37C and 5% CO2 for 24hr. For viability read, after 23hr of compound treatment, 1uL of CellTiter-Fluor reagent (Promega Corporation, Madison, WI) was added to each well of the assay plates using Flying Reagent Dispenser (FRD, Aurora Discovery, San Diego, CA) and incubated the assay plates at 37C for 1hr. The fluorescence signal was quantified using a ViewLux plate reader (Perkin Elmer, Shelton, CT).
A general note: In qHTS, concentration-response curves come from the screen itself.
With `C/C1=C2N=C(/C=C3N=C(/C(C)=C4\[N-][C@@](C)([C@@H]5N=C1[C@](C)(CCC(=O)NC[C@@H](C)OP(=O)([O-])O[C@H]1[C@@H](O)[C@@H](n6cnc7cc(C)c(C)cc76)O[C@@H]1CO)[C@H]5CC(N)=O)[C@@](C)(CC(N)=O)[C@@H]4CCC(N)=O)[C@@](C)(CC(N)=O)[C@@H]\3CCC(N)=O)C(C)(C)[C@@H]/2CCC(N)=O.[C-]#N.[Co+3]`, the Potency result is “inactive”.
Turning to `COP(C)(=O)OC`, the Potency entry is “inactive”.
On to `[NH4+].[O-][Cl+3]([O-])([O-])[O-]`, for which the Potency entry is “inactive”.
For `N#CBr`, the Potency entry was “inactive”.
In the case of `O=[N+]([O-])[O-].[NH4+]`, the Potency result was “inactive”.
Regarding `CCOP(=O)(CC)OCC`, the Potency result was “inactive”.
Turning to `O=[N+]([O-])OCC(CO[N+](=O)[O-])(CO[N+](=O)[O-])CO[N+](=O)[O-]`, the Potency result is “inactive”.
In the case of `CC(C)OP(C)(=O)OC(C)C`, the Potency entry was “inactive”.
As for `CN(C)CCCl`, the Potency result is “inactive”.
`Cc1ccc([N+](=O)[O-])cc1[N+](=O)[O-]`: the Potency was active: 17 µM and inactive.
For `O=[N+]([O-])c1cccc([N+](=O)[O-])c1`, the Potency entry is “inactive”.
For `CCOP(=O)(CC)Oc1ccc([N+](=O)[O-])cc1` (stereo not drawn), the Potency entry is “inactive”.
With `N=C(N)N[N+](=O)[O-]`, the Potency result is “inactive”.
Under `CC(C)N(CCO)C(C)C` stands “inactive”; under `OCCSCCO`, “inactive”.
On to `COc1ccc([N+](=O)[O-])cc1[N+](=O)[O-]`, for which the Potency result is “inactive”.
Then `CP(=O)(O)OCCC[Si](O)(O)O`, with “inactive”; and `Cc1c([N+](=O)[O-])cccc1[N+](=O)[O-]`, with “inactive”.

The values are drawn from PubChem BioAssay (Tox21).
